Earlier results as cited in US10577395B2 (priority 2014, dated 2020).

Test system: vancomycin-resistant strain of E. faecium
Details: Kahne et al., Chem. Rev. 2005; cited from earlier work

In the case of CN[C@H](CC(C)C)C(=O)N[C@H]1C(=O)N[C@@H](CC(N)=O)C(=O)N[C@H]2C(=O)N[C@H]3C(=O)N[C@H](C(=O)N[C@H](C(=O)O)c4cc(O)cc(O)c4-c4cc3ccc4O)[C@H](O)c3ccc(c(Cl)c3)Oc3cc2cc(c3O[C@@H]2O[C@H](CO)[C@@H](O)[C@H](O)[C@H]2O[C@H]2C[C@](C)(N)[C@H](O)[C@H](C)O2)Oc2ccc(cc2Cl)[C@H]1O [Compound 1, vancomycin, reference compound], the “MIC, vancomycin-resistant strain of E. faecium” value is given as 2048 µg/mL.
